Activity calls are given as the source filed them.
Experiments:
Format in all cases: cell-based
Settings in all cases: CD3-positive T cell
[1] = biological target: T1, Phosphatidylinositol 4,5-bisphosphate 3-kinase catalytic subunit delta isoform (Mus musculus) (UniProt O35904); test: Inhibition of PI3Kdelta in mouse CD3-positive T cells assessed as decrease in mTOR phosphorylation at Ser2448 at 3 uM by Western blot analysis
T1 sequence (whole entry): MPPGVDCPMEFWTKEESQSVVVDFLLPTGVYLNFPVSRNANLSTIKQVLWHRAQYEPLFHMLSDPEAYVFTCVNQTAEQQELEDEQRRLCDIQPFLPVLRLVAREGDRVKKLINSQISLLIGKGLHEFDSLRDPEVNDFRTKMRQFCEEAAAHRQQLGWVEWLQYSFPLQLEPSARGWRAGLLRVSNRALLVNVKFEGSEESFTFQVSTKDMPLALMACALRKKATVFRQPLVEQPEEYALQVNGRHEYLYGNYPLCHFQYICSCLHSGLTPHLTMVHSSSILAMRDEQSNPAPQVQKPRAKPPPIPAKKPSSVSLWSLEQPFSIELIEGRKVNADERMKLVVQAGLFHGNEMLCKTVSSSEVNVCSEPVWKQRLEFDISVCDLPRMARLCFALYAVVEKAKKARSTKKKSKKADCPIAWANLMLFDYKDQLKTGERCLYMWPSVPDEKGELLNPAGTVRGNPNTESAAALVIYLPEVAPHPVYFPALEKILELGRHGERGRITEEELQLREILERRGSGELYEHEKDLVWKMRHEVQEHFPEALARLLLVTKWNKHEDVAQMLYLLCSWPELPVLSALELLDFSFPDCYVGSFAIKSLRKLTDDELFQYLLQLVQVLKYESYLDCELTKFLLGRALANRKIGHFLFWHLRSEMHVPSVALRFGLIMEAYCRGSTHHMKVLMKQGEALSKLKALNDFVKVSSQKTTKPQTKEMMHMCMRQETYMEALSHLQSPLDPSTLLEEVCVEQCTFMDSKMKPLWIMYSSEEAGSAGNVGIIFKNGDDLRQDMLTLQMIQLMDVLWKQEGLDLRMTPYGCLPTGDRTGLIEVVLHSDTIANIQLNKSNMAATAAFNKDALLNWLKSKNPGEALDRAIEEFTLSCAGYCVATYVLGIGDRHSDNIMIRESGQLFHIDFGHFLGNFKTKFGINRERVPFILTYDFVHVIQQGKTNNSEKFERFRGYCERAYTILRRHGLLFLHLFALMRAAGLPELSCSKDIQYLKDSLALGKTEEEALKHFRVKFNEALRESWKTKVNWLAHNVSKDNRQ

[2] = biological target: T1, Phosphatidylinositol 4,5-bisphosphate 3-kinase catalytic subunit delta isoform (Mus musculus); test: Inhibition of PI3Kdelta in mouse CD3-positive T cells assessed as decrease in AKT phosphorylation at Ser473 at 3 uM by Western blot analysis
[3] = biological target: T1, Phosphatidylinositol 4,5-bisphosphate 3-kinase catalytic subunit delta isoform (Mus musculus); test: Inhibition of PI3Kdelta in mouse CD3-positive T cells assessed as decrease in S6 phosphorylation at Ser235/236 at 3 uM by Western blot analysis

Measured: inhibition

C[C@H](Nc1nc(N)nc(N)c1C#N)c1cn(-c2cccnc2)c2cc(Cl)cnc12
active: [1] | [2] | [3]

From ChEMBL document CHEMBL5506056, “Discovery of Novel Azaindoles as Potent and Selective PI3Kδ Inhibitors for Treatment of Multiple Sclerosis” (J Med Chem, 2024)
